Here are results for 1 compound from publication PMC9257522, “Machine Learning for Discovery of New ADORA Modulators” (Frontiers in Pharmacology, 2022).

Counter-ions that a name gives are not always drawn. Bounds are passed on as bounds.

The experiment relates to human A2BAR. Put plainly: Radioligand displacement binding, [3H]DPCPX. (In general: In a radioligand displacement assay an active substance lowers the binding of a labelled ligand.)

Take `Fc1ccc([C@@H]2CCNC[C@H]2COc2ccc3c(c2)OCO3)cc1` [Paroxetine, Paroxetine Hydrochloride]: the “Inhibition of specific binding, % inhibition at 100 µM, A2B ([3H]DPCPX)” value is reported as below 10%.
